scFv variants of Ab-91 (heavy chain) against a SARS-CoV-2 spike peptide

The target is the same throughout: PDVDLGDISGINAS, from the HR2 region of SARS-CoV-2 spike.

Parent: Ab-91, a human scFv built as VL, a 15-residue (Gly4Ser)3 linker, VH. Only the CDRs of the heavy chain vary.
VL: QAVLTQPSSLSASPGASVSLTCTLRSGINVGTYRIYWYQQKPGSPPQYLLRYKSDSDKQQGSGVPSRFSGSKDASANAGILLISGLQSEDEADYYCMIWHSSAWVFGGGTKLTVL
VH: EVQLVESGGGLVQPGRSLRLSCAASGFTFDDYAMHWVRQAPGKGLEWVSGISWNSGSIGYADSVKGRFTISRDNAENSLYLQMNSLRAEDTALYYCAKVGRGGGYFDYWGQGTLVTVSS

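The starting antibody came from a phage panning campaign against this peptide. Library AAYL51 holds single substitutions and randomly drawn double and triple substitutions in the CDRs. AlphaSeq pools MATa yeast showing the antibodies with MATalpha yeast showing the peptide. Binding brings cells together so that they mate, and sequencing counts the barcode pairs among the diploids. Read counts were normalised to the haploid input and turned into Kd by a linear fit to BCL2-family pairs of known affinity, for each replicate. There are three technical replicates.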

Each variant is given by its three heavy chain CDRs, as the data file delimits them; those of the parent are GFTFDDYAMH, GISWNSGSIGYADSVK, VGRGGGYFDY.
All variants listed here change A33 of the VH, counted from its first residue.
Values are apparent Kd, the geometric mean of the replicates that gave a signal; lower means stronger binding.
"nd" marks a missing value. The strain was present, yet no cells mated with the target were sequenced in any replicate, which points to weak or no binding.
For reference, the parent read 72 nM as the reference entry and 7.5 nM as a member of this library.
Three control strains display no target. For library AAYL51, 21% of the pairings with them gave a signal, with a median of 34 µM and one signal in twenty below 1.8 µM, so weak values seen in few replicates may be background.

Variant GFTFDDYFMH / GISWNLGSIGYADSVK / VGRHGGYFDY gave 27 µM (1 of 3 replicates).
Variant GFTFDDYHMH / GISWNSGSIGYARSVK / LGRGGGYFDY gave nd (0 of 3 replicates).
Variant GFTFFDYGMH / GISWNSGSIGYADSVK / VQRGGGYFDY gave nd (0 of 3 replicates).
Variant GFTFDDYRMH / GISWNSGSIGYADSVK / VGRGGGYFDY gave 50 µM (1 of 3 replicates).
Variant GFTFDDYVMH / GISWNSWSIGYADSVK / VGRGGGYFIY gave 19 µM (1 of 3 replicates).
Variant GFTFDDYMMH / GISWCSGSIGYADSVK / VGRTGGYFDY gave 7.4 µM (1 of 3 replicates).
Variant GFTFDTYQMH / GICWNSGSIGYADSVK / VGRGGGYFDY gave nd (0 of 3 replicates).
Variant GFTFDDYFMH / GISWNSGSIGYADSVK / VGRGGQYFDQ gave nd (0 of 3 replicates).
Variant GFTFDDRSMH / GISWNSGSIGCADSVK / VGRGGGYFDY gave nd (0 of 3 replicates).
Variant GFTFDDWEMH / GISWNSGSPGYADSVK / VGRGGGYFDY gave nd (0 of 3 replicates).
Variant GFTFKDYTMH / GISWNSFSIGYADSVK / VGRGGGYFDY gave nd (0 of 3 replicates).
Variant GFTFDDYDMT / GISWNSGSIGYADSVK / VGRRGGYFDY gave 63 µM (2 of 3 replicates).
Variant GFTFDDYCMH / GISWNSGSIGYADSVK / VGRGGGYFDY gave 56 µM (2 of 3 replicates).
Variant GFTFDDYHMH / GISSNSGSIGYADSVK / VGHGGGYFDY gave nd (0 of 3 replicates).
Variant RFTFDDYPMH / GISWNSGSIGYADSVK / VGRGGKYFDY gave 110 µM (3 of 3 replicates).
Variant GFTFDDYCMH / GISWPSGSIGYADSVK / VHRGGGYFDY gave nd (0 of 3 replicates).
Variant GFTFDDYKMH / GPSWNSGSIGNADSVK / VGRGGGYFDY gave 360 µM (1 of 3 replicates).
Variant GFTHDDYMMH / GISYNSGSIGYADSVK / VGRGGGYFDY gave 650 µM (1 of 3 replicates).
Variant GFTFDDYTMH / GISWNSGSIGYADSVK / VGRRGGYFDY gave nd (0 of 3 replicates).
Variant RFTFDDYPMH / GISWNSGSINYADSVK / VGRGGGYFDY gave nd (0 of 3 replicates).
Variant GFTFDVYRMH / GQSWNSGSIGYADSVK / VGRGGGYFDY gave nd (0 of 3 replicates).
Variant GFTFDHYHMH / GISWNSGSIGYADSVK / VGRGGGYFYY gave 190 µM (1 of 3 replicates).
Variant DFTFDDYVMH / GISWNSGSIGYADSVK / VGRGGGYFDQ gave nd (0 of 3 replicates).
Variant GFTFDDYYSH / GISWNSGSIGYADIVK / VGRGGGYFDY gave 39 µM (3 of 3 replicates).
Variant GFTFDDYDMH / QISWNSGSIGYADSVK / VGCGGGYFDY gave 61 µM (3 of 3 replicates).
Variant GQTFDTYEMH / GISWNSGSIGYADSVK / VGRGGGYFDY gave nd (0 of 3 replicates).
Variant GFTFDDYNMH / GISWNSGSIYYADSVK / VGRGGGYFDY gave 31 µM (1 of 3 replicates).
Variant GFTFDDYHMH / GGSWNSGSITYADSVK / VGRGGGYFDY gave 150 µM (2 of 3 replicates).
Variant GFTFDDYWMH / GISWNSGSIGYADSVK / VGRGGLYFDY gave nd (0 of 3 replicates).
Variant GFTCDDYCMH / GISWNSGSIGYVDSVK / VGRGGGYFDY gave 24 µM (1 of 3 replicates).
Variant GFTFKDYKMH / GISWNSGSIGYADSVK / VGRGVGYFDY gave 9.0 µM (1 of 3 replicates).
Variant GFPFDDYIMH / GISWNSGSIGYADSVK / VGRGGRYFDY gave nd (0 of 3 replicates).
Variant GFTFDDYNMH / GISDNSGSIGYADSVK / VKRGGGYFDY gave 2.1 µM (3 of 3 replicates).
Variant GFTFDDYLMH / GISWNSGSIGYADSVK / VGRGGGYWDY gave nd (0 of 3 replicates).
Variant GFTFDDYTMH / GISWNSGSIGYADFVK / VERGGGYFDY gave nd (0 of 3 replicates).
Variant GFTFDDYMMH / GISWNSGSIGYADSVK / VGRWGGYFDF gave nd (0 of 3 replicates).
Variant GFTFDDYPMH / GISWNSGSIGYADSVK / VGRGCGYFDI gave 36 µM (1 of 3 replicates).
Variant GFTFDDYDMH / GISWNSGSIGYARSVK / VGRGGGSFDY gave nd (0 of 3 replicates).
Variant KFTFDDYQMH / GISWNSGSPGYADSVK / VGRGGGYFDY gave 260 µM (3 of 3 replicates).
Variant GLTFDDYWMH / GISWNSGSIGYADSVK / VGRGGCYFDY gave nd (0 of 3 replicates).
Variant GFWFDDYIMH / GISWNSGSIGYADSVK / VGRGEGYFDY gave 390 µM (2 of 3 replicates).
Variant GFTFLDYEMH / GISWNSGSIGYADSVK / LGRGGGYFDY gave 150 µM (3 of 3 replicates).
Variant GFTFDDYYMH / GISWNSGSIGYADSVK / VGRGGGYFVY gave nd (0 of 3 replicates).
Variant GFTWDDYRMH / GISWNSGSIIYADSVK / VGRGGGYFDY gave nd (0 of 3 replicates).
Variant CETFDDYKMH / GISWNSGSIGYADSVK / VGRGGGYFDY gave nd (0 of 3 replicates).
Variant GFTFDDYGMH / GISWCSGSIGYGDSVK / VGRGGGYFDY gave 770 nM (3 of 3 replicates).
Variant GFTFDDYGMH / GISWNSGSIGYADCVK / VGRGFGYFDY gave nd (0 of 3 replicates).
Variant GFTRDDYWMH / GISWNSGSVGYADSVK / VGRGGGYFDY gave 140 µM (3 of 3 replicates).
Variant GFTFDDYYMH / GISWNSISIGMADSVK / VGRGGGYFDY gave 3.8 µM (1 of 3 replicates).
Variant GFTFDDYMMH / GPSSNSGSIGYADSVK / VGRGGGYFDY gave 380 µM (2 of 3 replicates).
Variant GFTFDDYCMH / GISWNSGSIGYADSVK / VGRGGGYFSY gave 11 µM (1 of 3 replicates).
Variant GFTYDDYEMH / GISWNSGSIGYADSVK / VGRGGTYFDY gave nd (0 of 3 replicates).

The opening 8 entries, copied out:

| CDR-H1 | CDR-H2 | CDR-H3 | Kd (apparent) | seen in |
|---|---|---|---|---|
| GFTFDDYFMH | GISWNLGSIGYADSVK | VGRHGGYFDY | 27 µM | 1/3 |
| GFTFDDYHMH | GISWNSGSIGYARSVK | LGRGGGYFDY | nd | 0/3 |
| GFTFFDYGMH | GISWNSGSIGYADSVK | VQRGGGYFDY | nd | 0/3 |
| GFTFDDYRMH | GISWNSGSIGYADSVK | VGRGGGYFDY | 50 µM | 1/3 |
| GFTFDDYVMH | GISWNSWSIGYADSVK | VGRGGGYFIY | 19 µM | 1/3 |
| GFTFDDYMMH | GISWCSGSIGYADSVK | VGRTGGYFDY | 7.4 µM | 1/3 |
| GFTFDTYQMH | GICWNSGSIGYADSVK | VGRGGGYFDY | nd | 0/3 |
| GFTFDDYFMH | GISWNSGSIGYADSVK | VGRGGQYFDQ | nd | 0/3 |

Data: MIT Lincoln Laboratory AlphaSeq set, Engelhart et al. 2022, doi:10.1038/s41597-022-01779-4, as distributed in FLAb.